# Source: ChEMBL document CHEMBL1165876, “Novel bis-phenanthridine derivatives with easily tunable linkers, study of their interactions with DNA and screening of antiproliferative activity” (Eur J Med Chem, 2010)
# How the values were obtained:
# Calf thymus DNA [1] = test: Binding affinity to calf thymus DNA assessed as fluorescence quenching at pH 5 by fluorimetric titration; assay type: nucleic-acid assay; conditions: Bos taurus
# Calf thymus DNA [2] = test: Binding affinity to calf thymus DNA assessed as fluorescence quenching at pH 7 by fluorimetric titration; assay type: nucleic-acid assay; conditions: Bos taurus
log Ks (Calf thymus DNA [1]),log Ks (Calf thymus DNA [2]),SMILES
6.9,6,Cc1nc2ccccc2c2ccc(C[C@H](NC(=O)CNC(=O)[C@@H](N)Cc3ccc4c(c3)c(C)nc3ccccc34)C(=O)O)cc12
5.4,4.5,Cc1nc2ccccc2c2ccc(C[C@H](N)C(=O)O)cc12
